The values that follow come from patent publication US5712367A, “Process for the solubilization of peptides and process for peptide synthesis” (Rhone-Poulenc Chimie, priority 1989, dated 1998).

The nature of the data set: Measurement of the solubilities of the molecules of formula (L)-seryl-A--L in water. The settings on record: measured in the filtrate after grinding in water for 15 minutes. On the procedure: Ammonia gas was passed into this solution at room temperature. The ammonium chloride precipitate obtained was rapidly filtered off. […] The product obtained after concentration was immediately ground in water for 15 minutes at room temperature and then filtered off.
The solubility of the product of formula (L)-seryl-A--L was measured in the filtrate.

Regarding “L-Serine [3-phenoxybenzyl 3-(hydroxymethyl)benzoate] ester”, the “solubility in water at 25° C.” value was 750 µg/mL.
